Measurements as given in ChEMBL document CHEMBL1127260, “EMD 61 753 as a favourable representative of structurally novel arylacetamido-type K opiate receptor agonists” (Bioorg Med Chem Lett, 1994).
Values joined by “and” are separate entries in the source; they are usually repeats but may differ in a detail not shown here. Equal values may be shown once.

Chains of the proteins cited; added tags and fusions are not shown. Lines headed by an entry give the natural chain unless they say otherwise; changes in a name come on top.
UniProt P33533, whole entry, looked up: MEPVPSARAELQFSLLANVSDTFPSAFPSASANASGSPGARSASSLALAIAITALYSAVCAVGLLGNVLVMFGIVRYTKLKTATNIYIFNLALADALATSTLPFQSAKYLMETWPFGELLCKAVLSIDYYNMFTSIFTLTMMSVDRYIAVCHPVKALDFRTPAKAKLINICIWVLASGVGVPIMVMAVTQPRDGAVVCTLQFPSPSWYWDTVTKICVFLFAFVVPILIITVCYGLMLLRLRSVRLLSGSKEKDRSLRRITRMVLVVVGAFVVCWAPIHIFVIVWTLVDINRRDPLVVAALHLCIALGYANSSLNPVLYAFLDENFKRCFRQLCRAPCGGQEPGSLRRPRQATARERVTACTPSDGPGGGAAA
UniProt P41144: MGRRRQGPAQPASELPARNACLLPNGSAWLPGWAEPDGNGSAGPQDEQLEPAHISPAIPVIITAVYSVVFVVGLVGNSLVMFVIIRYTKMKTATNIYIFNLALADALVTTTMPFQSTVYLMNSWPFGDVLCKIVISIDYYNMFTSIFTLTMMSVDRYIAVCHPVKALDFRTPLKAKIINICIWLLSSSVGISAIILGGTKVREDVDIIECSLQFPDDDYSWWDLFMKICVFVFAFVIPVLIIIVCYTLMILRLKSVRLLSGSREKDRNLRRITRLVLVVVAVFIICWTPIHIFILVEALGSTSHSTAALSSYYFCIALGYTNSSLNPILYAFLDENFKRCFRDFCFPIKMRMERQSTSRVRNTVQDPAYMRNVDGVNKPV
UniProt P33535, whole entry, looked up: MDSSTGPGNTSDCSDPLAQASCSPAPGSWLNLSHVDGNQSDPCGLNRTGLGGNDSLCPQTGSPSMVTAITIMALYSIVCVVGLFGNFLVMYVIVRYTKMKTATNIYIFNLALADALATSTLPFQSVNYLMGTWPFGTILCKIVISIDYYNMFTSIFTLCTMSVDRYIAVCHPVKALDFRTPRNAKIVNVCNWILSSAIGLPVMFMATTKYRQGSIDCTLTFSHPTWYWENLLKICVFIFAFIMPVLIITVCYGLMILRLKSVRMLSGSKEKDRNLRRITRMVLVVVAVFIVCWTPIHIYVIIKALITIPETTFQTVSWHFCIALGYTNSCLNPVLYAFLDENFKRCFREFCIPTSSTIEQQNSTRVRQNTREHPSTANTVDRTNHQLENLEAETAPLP

Tests used:
[1] = molecular target: Delta-type opioid receptor (Rattus norvegicus, UniProt P33533); test: Affinity to delta opioid receptor determined in the presence of [3H]- [D-Pen2,5]enkephalin using membranes prepared from rat cerebrum
[2] = molecular target: Kappa-type opioid receptor (Cavia porcellus, UniProt P41144); test: Affinity at K opioid receptor on membranes prepared from guinea pig cerebellum by [3H]- 69593 displacement.
[3] = molecular target: Mu-type opioid receptor (Rattus norvegicus, UniProt P33535); test: Affinity to mu opioid receptor determined in the presence of [3H]- PL 017 using membranes prepared from rat cerebrum

SMILES	Ki [1] [nM]	Ki [2]	Ki [3] [nM]
CN(C(=O)Cc1ccccc1N)[C@H](CN1CC[C@H](O)C1)c1ccccc1	> 100	1 nM	> 100
CC(C)C(C(=O)N(C)[C@H](CN1CC[C@H](O)C1)c1ccccc1)c1ccccc1 (stereo partly drawn)	> 100	3 nM and 10 nM	> 100
CN(C(=O)Cc1ccc(Cl)c(Cl)c1)[C@H]1CCCC[C@@H]1N1CCCC1	–	1 nM	–
CN(C(=O)C(c1ccccc1)c1ccccc1)[C@H](CN1CC[C@H](O)C1)c1ccccc1.Cl [ASIMADOLINE HYDROCHLORIDE]	–	2 nM	–
